DSG3 Ab inh = inhibitors of pemphigus antibody binding to DSG3, primary screen, biochemical, bead-based, flow cytometry, scFv-GFP; binding (percent of control), % at 10 µM; DSG3-coupled beads, scFv-anti-DSG3-GFP binding; stronger effect = lower value; 310,000 tested, 0.48% active;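 active means binding more than 3 SD below its plate's average and above zero; inconclusive means below that plate limit but binding exactly zero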;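 further: hits lower antibody fragment binding to DSG3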
PABP1 MLLE inh = inhibitors of PABP1 MLLE–PAM2 peptide binding, primary screen, biochemical, fluorescence polarization, FITC-PAM2, GST-MLLE; Polyadenylate-binding protein 1 (Homo sapiens), P11940; inhibition, % at 20 µM; 360,000 tested, 0.36% active; in the data active means inhibition above about 35%, passing the limit was not always enough
PABP polyA inh = PABP poly(A) RNA binding inhibitors, primary screen, biochemical, fluorescence polarization, uHTS; AID 2014, 2009; calls only at 35 µM; 290,000 tested, 1% active;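 further: calls also rest on retests at 20 µM and on dose response follow-up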
eIF4H inh = human eIF4H binding inhibitors, primary screen, translation initiation inhibitor project, biochemical, uHTS, fluorescence polarization. 290,000 tested, 0.94% active. Eukaryotic translation initiation factor 4H (Homo sapiens), Q15056. inhibition, % at 35 µM. eIF4H fluorescence polarization binding assay;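 further: calls also rest on retests at 20 µM and on dose response follow-up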
UUG fidelity = alters start codon recognition fidelity in yeast; S. cerevisiae UUG-firefly luciferase reporter, luminescence/redox ratio; activity score, % at 18.7 µM; actives 0.13% (n = 350,000); AID 602363;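 active = replicate mean at a twofold rise or more, about +100% in these data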;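 also: firefly luciferase made from a UUG start codon reports start codon fidelity; reporter light over untreated wells divided by growth signal over untreated wells; some hits fall short of that in this replicate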
Of the large screens only hits and unclear results are named; the others gave an inactive call. Only some compounds are listed: those with a hit (about 1.5% of all), similar ones and a draw of the others. Unless noted, how the calls were made is not given here.

Chains of the proteins cited; added tags and fusions are not shown.
Polyadenylate-binding protein 1 (Homo sapiens), P11940, UniProt P11940, whole entry, looked up: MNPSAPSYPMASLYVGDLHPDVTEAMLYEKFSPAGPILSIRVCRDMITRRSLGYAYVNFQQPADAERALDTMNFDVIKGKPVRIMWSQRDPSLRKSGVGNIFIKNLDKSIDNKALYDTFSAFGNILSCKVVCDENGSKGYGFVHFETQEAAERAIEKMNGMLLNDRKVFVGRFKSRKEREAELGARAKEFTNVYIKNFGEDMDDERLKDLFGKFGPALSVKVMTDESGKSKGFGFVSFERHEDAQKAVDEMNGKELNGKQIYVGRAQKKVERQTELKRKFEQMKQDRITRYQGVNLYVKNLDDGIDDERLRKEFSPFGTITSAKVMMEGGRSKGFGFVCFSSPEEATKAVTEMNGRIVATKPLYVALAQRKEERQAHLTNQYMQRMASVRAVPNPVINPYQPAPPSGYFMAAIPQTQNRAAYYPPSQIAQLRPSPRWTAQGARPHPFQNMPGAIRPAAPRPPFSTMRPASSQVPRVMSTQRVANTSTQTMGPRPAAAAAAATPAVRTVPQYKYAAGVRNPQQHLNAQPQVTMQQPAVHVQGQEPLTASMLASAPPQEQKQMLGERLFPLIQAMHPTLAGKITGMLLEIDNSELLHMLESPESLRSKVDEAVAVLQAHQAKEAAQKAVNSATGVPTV

CNC(=O)C1CC(=O)N(CCc2ccccc2)C(=Nc2ccc(OC)cc2)S1 (configuration not stated)	PABP polyA inh inconclusive (no result: UUG fidelity)
O=C(Nc1ccc(F)cc1F)c1noc2c1CCC2	PABP polyA inh active, eIF4H inh 85.0
O=C(Nc1cc(Cl)ccc1Cl)c1noc2c1CCCC2	none
CC(C)Cn1c(N)c(C(=O)COC(=O)c2cc(-c3ccccc3)nc3ccccc23)c(=O)n(C)c1=O	none
CC(C)Cn1c(N)c(C(=O)COC(=O)c2cc(C3CC3)nc3ccccc23)c(=O)n(C)c1=O	PABP polyA inh active (no result: DSG3 Ab inh, PABP1 MLLE inh, UUG fidelity)
C[C@H]1CN([C@@H](C)CO)C(=O)CCCn2cc(nn2)CO[C@@H]1CN(C)Cc1cccc(C(F)(F)F)c1	none (no result: DSG3 Ab inh, PABP1 MLLE inh, PABP polyA inh, eIF4H inh)
COc1ccc(-c2cn3c(C)c(C(=O)NC(C)C)sc3n2)cc1	DSG3 Ab inh 47.4
CC(C)OCCCNc1ncnc2c1nc1n2CCCC1	PABP polyA inh active, eIF4H inh 93.5
O=C(NCCCN1CCCCC1)C1CCN(c2ncnc3c2nc2n3CCCCC2)CC1	none
CN1C2C=C3C(C#N)=C(N)C(C#N)(C#N)[C@@H](c4cccs4)C3C1CC2 (some centres not stated)	PABP polyA inh active, eIF4H inh 59.1
CC(C)(C)C1CC=C2C(C#N)=C(N)C(C#N)(C#N)C(c3cccs3)C2C1 (configuration not stated)	PABP polyA inh active, eIF4H inh 93.1 (no result: DSG3 Ab inh, PABP1 MLLE inh, UUG fidelity)
CO[C@@H]1CN(C)C(=O)c2ccc(NC(C)=O)cc2OC[C@H](C)N(C(=O)c2ccc(F)cc2)C[C@@H]1C	none (no result: DSG3 Ab inh, PABP1 MLLE inh, PABP polyA inh, eIF4H inh)
CN1C(=O)c2cc(NC(=O)C3CCOCC3)ccc2OC[C@H]2O[C@@H](CC(=O)NCC3CC3)CC[C@@H]21	none (no result: DSG3 Ab inh, PABP1 MLLE inh, PABP polyA inh, eIF4H inh)
O=C(C[C@@H]1C[C@H]2c3cc(NC(=O)C4CCC4)ccc3O[C@H]2[C@@H](CO)O1)NCc1ccncc1	none (no result: DSG3 Ab inh, PABP1 MLLE inh, PABP polyA inh, eIF4H inh)
CCO/C=C/C(O)(CNC(=O)c1ccc(C(C)(C)C)cc1)C(F)(F)F (configuration not stated)	PABP polyA inh active (no result: UUG fidelity)
Oc1ccc(/C=N/NC(=S)Nc2cccnc2)c(O)c1O	DSG3 Ab inh 52.6, PABP polyA inh active, eIF4H inh 87.0
Fc1cccc(F)c1/C=N/NC(=S)Nc1cccnc1	none (no result: UUG fidelity)
Fc1c(F)c(F)c(/C=N/NC(=S)Nc2cccnc2)c(F)c1F	PABP1 MLLE inh 40.0 (no result: UUG fidelity)
COc1ccc(NS(=O)(=O)c2ccc(Cl)s2)cn1	PABP1 MLLE inh 58.3, PABP polyA inh inconclusive, eIF4H inh inconclusive (no result: UUG fidelity)
C[C@H]1CN([C@@H](C)CO)C(=O)Cc2cc(NC(=O)c3ccncc3)ccc2O[C@H]1CN(C)Cc1ccc(-c2ccccc2)cc1	none (no result: DSG3 Ab inh, PABP1 MLLE inh, PABP polyA inh, eIF4H inh)
Cc1ccc(S(=O)(=O)c2cc(Nc3ccccc3)ccc2O)cc1	none (no result: PABP polyA inh, eIF4H inh)
O=S(=O)(O)c1cc(O)c2ccc(Nc3ccccc3)cc2c1	DSG3 Ab inh 44.4 (no result: PABP polyA inh, eIF4H inh)
COc1ccccc1Nc1ccc2c(O)cc(S(=O)(=O)O)cc2c1	none (no result: PABP polyA inh, eIF4H inh)
O=S(=O)(O)c1ccc(O)c2cc(Nc3ccccc3)ccc12	DSG3 Ab inh 37.9, PABP1 MLLE inh 44.6 (no result: PABP polyA inh, eIF4H inh)
Nc1ccc2c(O)cc(S(=O)(=O)O)cc2c1	PABP1 MLLE inh 48.6 (no result: PABP polyA inh, eIF4H inh)
O=S(=O)(O)c1cc(O)c2cc(Nc3ccccc3)ccc2c1	PABP1 MLLE inh 46.4 (no result: PABP polyA inh, eIF4H inh)
C[C@@H]1CN([C@H](C)CO)C(=O)c2cc(NC(=O)Nc3ccc(C(F)(F)F)cc3)ccc2O[C@H]1CN(C)C(=O)NC1CCCCC1	none (no result: DSG3 Ab inh, PABP1 MLLE inh, PABP polyA inh, eIF4H inh)
C[C@@H]1CN([C@@H](C)CO)C(=O)Cc2cc(NC(=O)NC3CCCCC3)ccc2O[C@H]1CN(C)S(=O)(=O)c1ccc(F)cc1	none (no result: DSG3 Ab inh, PABP1 MLLE inh, PABP polyA inh, eIF4H inh)
CC1=CCC(C(=O)O)(C(=O)N/N=C/c2cccs2)C(c2ccc([N+](=O)[O-])cc2)C1 (configuration not stated)	DSG3 Ab inh 32.9
CN(C)c1oc(-c2ccccc2[N+](=O)[O-])nc1C#N	PABP1 MLLE inh 42.2
C[C@@H]1CN([C@H](C)CO)C(=O)c2cc(C#C[C@@H](C)O)cnc2O[C@H]1CN(C)C(=O)Cc1ccccn1	none (no result: DSG3 Ab inh, PABP1 MLLE inh, PABP polyA inh, eIF4H inh)
CCOc1ccccc1-c1nc(-c2ccc(NC(=O)Cc3ccccc3OC)cc2)no1	PABP polyA inh active, eIF4H inh 53.7
COc1ccc(NC(=O)N[C@@H]2CC[C@@H](CCn3cc(-c4ccccc4)nn3)O[C@H]2CO)cc1	none (no result: DSG3 Ab inh, PABP1 MLLE inh, PABP polyA inh, eIF4H inh)
Oc1ccccc1C(Nc1nccs1)c1ccc2cccnc2c1O (configuration not stated)	DSG3 Ab inh 70.0
CCOC(=S)SCc1cn2cccc(C)c2n1	PABP1 MLLE inh 38.9 (no result: UUG fidelity)
Cc1cccn2cc(CNc3ccccc3)nc12	none
C[C@@H]1CN([C@@H](C)CO)C(=O)c2cc(NC(=O)Cc3ccccc3)ccc2O[C@H]1CN(C)C(=O)Nc1cccc2ccccc12	none (no result: DSG3 Ab inh, PABP1 MLLE inh, PABP polyA inh, eIF4H inh)
COc1ccc(NC(=O)Nc2ccc3c(c2)C(=O)N([C@@H](C)CO)C[C@H](C)[C@@H](CN(C)C(=O)Nc2c(C)noc2C)OCCCC[C@H](C)O3)cc1	none (no result: DSG3 Ab inh, PABP1 MLLE inh, PABP polyA inh, eIF4H inh)
COc1cc(/C=C2\S/C(=N/S(=O)(=O)Cc3ccccc3)NC2=O)c([N+](=O)[O-])cc1OC	none
COc1cc(/C=C2/S/C(=N/S(=O)(=O)c3ccccc3)NC2=O)c([N+](=O)[O-])cc1OC	PABP1 MLLE inh 39.5
CCCNC(=O)C[C@@H]1C[C@H]2c3cc(NC(=O)Cc4ccncc4)ccc3O[C@H]2[C@@H](CO)O1	none (no result: DSG3 Ab inh, PABP1 MLLE inh, PABP polyA inh, eIF4H inh)
CCOc1ccccc1-c1c2cc(O)c(=O)cc-2oc2cc(O)c(O)cc12	eIF4H inh inconclusive (no result: UUG fidelity)
O=c1cc2oc3cc(O)c(O)cc3c(-c3ccccc3O)c-2cc1O	DSG3 Ab inh 74.3, PABP polyA inh inconclusive, eIF4H inh inconclusive (no result: UUG fidelity)
S=C(NCc1ccccn1)Nc1ccc(Br)cc1Cl	PABP1 MLLE inh 38.8
CCC(C)[C@H](NC(=O)C1CC(=O)N(c2ccc3c(c2)OCO3)C1)C(=O)NC1CCCCC1 (some centres not stated)	PABP1 MLLE inh 48.9, PABP polyA inh inconclusive, eIF4H inh inconclusive
CCC(C)[C@H](NC(=O)C1CC(=O)N(c2ccc3c(c2)OCCO3)C1)C(=O)NC1CCCC1 (some centres not stated)	none
O=C(CCCc1ccccc1)Nc1ccccn1	PABP polyA inh active
COc1ccc(NC(=O)CSc2[nH]c(=O)cc(C)c2C#N)cc1OC	none
CCOc1ccc(Cc2nnc(SCC(=O)Nc3c(C)cccc3C)[nH]c2=O)cc1	none (no result: PABP polyA inh, eIF4H inh, UUG fidelity)
Cc1cc(=O)[nH]c(SCC(=O)NC(C)C2CC3CCC2C3)c1C#N (configuration not stated)	PABP polyA inh active, eIF4H inh 3.3 (no result: UUG fidelity)
CCc1cccc(CC)c1NC(=O)CSc1nnc(CCC(=O)O)c(=O)[nH]1	PABP1 MLLE inh 38.5
Cc1cc(=O)[nH]c(SCC(=O)c2ccccc2)c1C#N	PABP polyA inh active, eIF4H inh 80.8
Cc1ccccc1NC(=O)CSc1[nH]c(=O)cc(C)c1C#N	PABP polyA inh active, eIF4H inh 22.4
CO[C@H]1CN(C)C(=O)c2cc(NC(C)=O)ccc2OC[C@H](C)N(Cc2ccncc2)C[C@H]1C	none (no result: DSG3 Ab inh, PABP1 MLLE inh, PABP polyA inh, eIF4H inh)
